Data set [1] has as its target T1, Daudi cell receptor sites (Homo sapiens, UniProt P17181+P48551).
T1 construct: endogenous in cells; host or cells: Daudi (human lymphoblastoid) cells
T1 sequence (P48551 27-515): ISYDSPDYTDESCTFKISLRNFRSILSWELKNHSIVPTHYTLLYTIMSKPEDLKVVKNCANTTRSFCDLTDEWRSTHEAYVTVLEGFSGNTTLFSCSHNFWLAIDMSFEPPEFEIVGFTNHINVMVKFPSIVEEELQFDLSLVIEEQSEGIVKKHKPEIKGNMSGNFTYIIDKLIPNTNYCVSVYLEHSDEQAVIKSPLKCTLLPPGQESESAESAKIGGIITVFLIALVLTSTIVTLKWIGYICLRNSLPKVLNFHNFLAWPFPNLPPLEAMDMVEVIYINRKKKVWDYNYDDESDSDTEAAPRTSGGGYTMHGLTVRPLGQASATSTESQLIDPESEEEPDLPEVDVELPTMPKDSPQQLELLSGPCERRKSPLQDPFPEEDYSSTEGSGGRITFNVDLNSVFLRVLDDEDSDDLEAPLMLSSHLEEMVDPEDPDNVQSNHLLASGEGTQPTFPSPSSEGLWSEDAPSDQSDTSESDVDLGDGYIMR
T1 sequence (P17181 28-557): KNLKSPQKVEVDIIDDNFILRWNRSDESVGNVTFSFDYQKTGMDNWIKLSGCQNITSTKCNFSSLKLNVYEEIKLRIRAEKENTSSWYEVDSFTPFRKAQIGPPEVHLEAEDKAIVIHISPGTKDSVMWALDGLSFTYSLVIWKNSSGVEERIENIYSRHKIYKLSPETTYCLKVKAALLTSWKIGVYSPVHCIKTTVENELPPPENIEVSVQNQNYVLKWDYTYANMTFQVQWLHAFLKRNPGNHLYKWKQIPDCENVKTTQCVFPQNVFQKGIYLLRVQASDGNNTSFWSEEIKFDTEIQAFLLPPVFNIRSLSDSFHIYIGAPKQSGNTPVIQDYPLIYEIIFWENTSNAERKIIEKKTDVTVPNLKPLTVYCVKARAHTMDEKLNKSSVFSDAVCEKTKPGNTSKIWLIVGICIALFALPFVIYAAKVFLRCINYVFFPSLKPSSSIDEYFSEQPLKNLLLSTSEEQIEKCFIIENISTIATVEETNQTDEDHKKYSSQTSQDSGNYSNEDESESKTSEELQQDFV
In words: Competition experiments: displacement of 125I-IFN-alpha-2 from Daudi cells. It counts as binding. Particulars: 100 fold excess of unlabeled IFN. A general note: In a radioligand displacement assay an active substance lowers the binding of a labelled ligand.

Data set [2] has as its system human HEp-2 cells challenged with vesticular stomatitis virus (Indiana Strain). Particulars: reported for product purchased from Lee BioMolecular Research Inc.; cited from earlier work.
For data set [3] the test system is unchanged. In words: cytopathic effect (CPE) assay of interferon biological (antiviral) activity. The data set is classed as cell-based. The protocol:
Ultrapure natural interferon alpha was prepared by incubating human peripheral blood cultures with Sendai virus. The culture supernatant was purified over an anti-interferon alpha column (NK-2 sepharose). […] The biological activity of interferons alpha, beta and gamma were determined by the cytopathic effect (CPE) assay on human HEp-2 cells challenged with vesticular stomatitis virus (Indiana Strain). All titers were calibrated against the NIH reference standards for alpha (#Ga23-902-503) and gamma (Gg 23-901-530) interferons. All titers are expressed as NIH reference units.
For orientation: Cytopathic effects are the visible damage that an infection or toxin causes in cultured cells.

Some results are limits rather than exact numbers.

With “IFN beta: Human fibroblast IFN beta purchased from Lee BioMolecular Research Inc.”, the “reduction in the binding of 125I-IFN-alpha2 for Daudi cells” value in data set [1] is listed as “more than 80%”. In data set [2], the reported specific activity was 4.7×10^5 U/mg of protein. Regarding “IFN-alpha-2: Recombinant human IFN-alpha-2 synthesized in yeast and purified by immuno affinity chromatography”, the specific activity in data set [3] (CPE assay, NIH reference units) was 2×10^8 U/rag of protein. Take “^125 I-IFN-alpha-2: IFN-alpha-2 labeled with 125I-Bolton-Hunter reagent [reference compound]”: the “original antiviral activity retained after iodination” value in data set [3] (after labeling with 125I-Bolton-Hunter reagent) is reported as more than 95%.
